# Test results as given in the NIST ThermoML archive (doi:10.1021/acs.jced.7b00542).
# Numbers after ± are expanded uncertainties.
# Assays:
# [1] = Molar enthalpy of transition or fusion; conditions: Crystal; DSC
# [2] = Crystal; DTA
compound,measurement,setting,value
CS(=O)(=O)c1ccc([C@@H](O)[C@@H](CO)NC(=O)C(Cl)Cl)cc1 [thiamphenicol],Molar enthalpy of transition or fusion,[1],11.2 ± 0.287 kcal/mol
same,Normal melting temperature,[2],164.61 ± 1.1 °C
